Assay results published in ChEMBL document CHEMBL1124824, “Synthesis and biological activity of atrial natriuretic factor analogues: effect of modifications to the disulfide bridge” (J Med Chem, 1990).

What was measured:
Oryctolagus cuniculus = organism: Oryctolagus cuniculus; experiment: Compound was tested for the inhibition of the stimulated contractions of the superfused rabbit thoracic aortic rings.; format: functional, Aorta
Method in brief: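 Rabbit thoracic aorta rings (4 mm) were held isometrically at 10-g resting tension, superfused and precontracted with phenylephrine. Test peptide was added to the superfusate above the tissue in successively higher doses after each recovery. Doses were based on peptide content. EC50 came from the dose-response curve, mean of three determinations ± SEM.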

[1] = molecular target: T1, Atrial natriuretic peptide receptor 2 (Bos taurus, UniProt P46197); experiment: Binding affinity was determined based on the displacement of [125]r-ANF (99-126) from binding sites on bovine adrenal zona glomerulosa cell membranes (Atrionatriuretic peptide receptor B)
T1 sequence (P46197 whole entry): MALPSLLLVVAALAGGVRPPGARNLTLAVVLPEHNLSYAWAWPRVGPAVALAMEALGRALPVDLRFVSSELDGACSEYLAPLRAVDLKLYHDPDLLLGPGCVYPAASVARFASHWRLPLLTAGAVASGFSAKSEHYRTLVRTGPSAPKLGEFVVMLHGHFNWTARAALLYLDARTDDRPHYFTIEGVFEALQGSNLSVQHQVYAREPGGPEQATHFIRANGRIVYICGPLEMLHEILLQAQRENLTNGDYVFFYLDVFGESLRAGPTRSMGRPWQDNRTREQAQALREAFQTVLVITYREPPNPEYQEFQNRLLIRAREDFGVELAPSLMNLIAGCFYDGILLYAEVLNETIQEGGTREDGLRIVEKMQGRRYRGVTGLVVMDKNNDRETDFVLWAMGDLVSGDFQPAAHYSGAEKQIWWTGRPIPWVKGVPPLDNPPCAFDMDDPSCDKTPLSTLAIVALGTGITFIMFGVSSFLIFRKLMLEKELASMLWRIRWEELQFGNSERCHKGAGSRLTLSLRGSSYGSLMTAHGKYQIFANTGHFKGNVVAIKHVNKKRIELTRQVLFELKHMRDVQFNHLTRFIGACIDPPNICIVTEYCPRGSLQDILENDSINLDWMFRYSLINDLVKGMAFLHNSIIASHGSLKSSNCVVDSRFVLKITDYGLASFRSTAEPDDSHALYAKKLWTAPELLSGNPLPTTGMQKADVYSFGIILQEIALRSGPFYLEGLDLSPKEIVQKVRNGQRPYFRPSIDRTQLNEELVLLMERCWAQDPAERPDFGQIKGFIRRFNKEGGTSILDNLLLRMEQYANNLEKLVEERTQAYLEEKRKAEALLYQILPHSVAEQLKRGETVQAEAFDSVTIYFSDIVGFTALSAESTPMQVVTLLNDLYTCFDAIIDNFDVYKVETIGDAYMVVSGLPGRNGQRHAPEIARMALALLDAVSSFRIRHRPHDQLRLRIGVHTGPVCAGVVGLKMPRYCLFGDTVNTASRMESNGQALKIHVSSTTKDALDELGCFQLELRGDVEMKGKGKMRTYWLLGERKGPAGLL

[2] = molecular target: T2, Atrial natriuretic peptide receptor 3 (Mus musculus, UniProt P70180); experiment: Binding affinity was determined based on the displacement of [125]r-ANF (99-126) from binding sites on mouse fibroblasts (NIH 3T3) cells (Atrionatriuretic peptide receptor C).
T2 sequence (P70180 whole entry): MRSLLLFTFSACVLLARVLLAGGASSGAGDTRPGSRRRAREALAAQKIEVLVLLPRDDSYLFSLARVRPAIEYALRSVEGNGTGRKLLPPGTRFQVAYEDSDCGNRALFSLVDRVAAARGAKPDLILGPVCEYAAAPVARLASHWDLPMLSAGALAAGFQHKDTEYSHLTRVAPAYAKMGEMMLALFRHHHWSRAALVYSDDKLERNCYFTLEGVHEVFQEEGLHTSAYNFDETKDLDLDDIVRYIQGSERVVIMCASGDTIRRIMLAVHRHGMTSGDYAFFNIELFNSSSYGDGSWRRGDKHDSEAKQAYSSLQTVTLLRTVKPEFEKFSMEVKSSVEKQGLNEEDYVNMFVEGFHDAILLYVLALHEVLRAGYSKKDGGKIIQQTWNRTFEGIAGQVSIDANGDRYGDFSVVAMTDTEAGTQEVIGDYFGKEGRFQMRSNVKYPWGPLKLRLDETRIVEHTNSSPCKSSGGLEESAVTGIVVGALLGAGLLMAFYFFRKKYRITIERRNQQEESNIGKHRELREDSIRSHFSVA

Q: `CC[C@H](C)[C@@H]1NC(=O)[C@H](CCCN=C(N)N)NC(=O)[C@H](CC(=O)O)NC(=O)[C@H]([C@@H](C)CC)NC(=O)[C@H](CCCN=C(N)N)NC(=O)CNC(=O)CNC(=O)[C@H](Cc2ccccc2)NC(=O)[C@@H](NC(=O)[C@H](CO)NC(=O)[C@H](CO)NC(=O)[C@H](CCCN=C(N)N)NC(=O)[C@H](CCCN=C(N)N)NC(=O)[C@H](CC(C)C)NC(=O)[C@@H](N)CO)CSSC[C@@H](C(=O)N[C@@H](CC(N)=O)C(=O)N[C@@H](CO)C(=O)N[C@@H](Cc2ccccc2)C(=O)N[C@@H](CCCN=C(N)N)C(=O)N[C@@H](Cc2ccc(O)cc2)C(=O)O)NC(=O)CNC(=O)[C@H](CC(C)C)NC(=O)CNC(=O)[C@H](CO)NC(=O)[C@H](CCC(N)=O)NC(=O)[C@H](C)NC(=O)CNC1=O` was tested. Which EC50 (Oryctolagus cuniculus) did it give?
A: 3.8e-11 M 50ul-1

Q: And the IC50 [1]?
A: 0.043 nM

Q: And the IC50 [2]?
A: 0.13 nM
